The source of these data is paper PMC12974487, “Inhibition of FicD-mediated AMPylation and deAMPylation by isoprenoid diphosphates” (Proceedings of the National Academy of Sciences of the …, 2026).

In this assay the target is T1, FicD^L258D (Homo sapiens, UniProt Q9BVA6, L258D).
T1 construct: soluble ER luminal domain (residues 105 to 458) of wild-type human FicD and three mutants; 6xHis-Sumo (N, cleaved yes); made in house; host or cells: Rosetta(DE3) E. coli
T1 sequence (Q9BVA6 105-458 L258D): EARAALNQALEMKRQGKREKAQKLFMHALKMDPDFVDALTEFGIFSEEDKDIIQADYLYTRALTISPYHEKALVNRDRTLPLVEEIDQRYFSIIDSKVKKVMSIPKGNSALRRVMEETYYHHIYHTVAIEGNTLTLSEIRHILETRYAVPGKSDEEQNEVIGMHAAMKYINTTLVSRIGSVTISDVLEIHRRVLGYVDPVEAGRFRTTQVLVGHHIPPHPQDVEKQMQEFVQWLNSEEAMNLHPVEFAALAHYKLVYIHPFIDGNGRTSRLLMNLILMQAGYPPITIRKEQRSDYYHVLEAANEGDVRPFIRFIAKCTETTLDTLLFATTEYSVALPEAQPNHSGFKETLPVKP
As to the kind of experiment: Differential scanning fluorimetry (DSF) thermal shift with FicD^L258D. Conditions: 5 mM MgCl2, read-out: EC50 of DSF dose-response (ΔTm). The assay is classed as binding. On the procedure: Differential Scanning Fluorimetry
Thermal shift assays were performed in Biorad CfX384 Touch Real-Time PCR Detection System
Reactions contained 50mM HEPES pH 7.4, 200mM NaCl,
200mM KCl, 200uM DTT, 5X Invitrogen Sypro Orange (Cat no. S6650), 8-9μM protein, and
indicated nucleotide, cofactor, or small molecule in a total volume of 20uL. For every experiment
‘no protein’ controls were also included with the same reaction conditions. All reactions were […]
(In general: DSF heats the sample and reads unfolding from a dye or from intrinsic fluorescence.)

pEC50: −log10 of the molar value.

For the substance deoxyadenosine diphosphate [dADP], the negative-log EC50 (pEC50) (usually the negative decadic logarithm of the EC50, by convention in mol/L) is 3.55.
